The list shows a part of the results, in another mix than the full data. Calls of active or inactive are those of the source. Calls follow the shape of the dose curve; as a rule, active = well fitted inhibition curve with a large enough effect; inconclusive = small, poorly fitted or top-dose-only effect; inactive = flat fitted curve, though single readings scatter.

This assay in a line: qHTS for Inhibitors of Vif-A3F Interactions: qHTS. Also: % of control where 0% means no effect; nearly all actives have a fitted effect of over 65% in size. To be noted: HeLa A3F-eYFP + Vif (tagged APOBEC3F with the HIV-1 protein that degrades it), YFP fluorescence increase; at 46.1 µM (top of the series). From the text: The recent discovery and characterization of host restriction factors, which provide a potent defense to invading retroviruses, has provided new targets for antiviral drug development. APOBEC3G (A3G) and APOBEC3F (A3F) are potent cytidine deaminases that block HIV-1 replication; HIV-1 expresses the Vif protein, which counteracts A3G and A3F by binding to them and inducing their proteasomal degradation. The Vif-A3G and Vif-A3F interactions provide two potential targets for development of small molecules which can interfere with the ability of Vif to degrade A3G or A3F. […] To identify inhibitors that can interfere with Vif mediated degradation of A3G and A3F, we have developed Hela cell lines that stably express A3G or A3F tagged with eYFP at the C-terminal end (A3G-eYFP or A3F-eYFP, respectively) and Vif. In the absence of an inhibitor, Vif induces degradation of A3G-eYFP and A3F-eYFP, and the cells are not fluorescent. In the presence of an inhibitor, it is expected that Vif will be unable to degrade A3G-eYFP and/or A3F-eYFP, resulting in an increase in yellow fluorescence. In this assays Vif A3F was screened against the Molecular Library Small Molecule Repository (MLSMR). NIH Chemical Genomics Center [NCGC] NIH Molecular Libraries Probe Centers Network [MLPCN] MLPCN Grant: MH093245 Assay Submitter (PI): Vinay Pathak, National Cancer Institute
5 uL of 700 cells/well of A3F-YFP cells are dispensed into black, clear bottom plates. The plates are incubated overnight at 37 deg C. 23 nL of compounds are added by pintool. The plates are incubated overnight at 37 deg C and then read on the TTP Acumen (Ex 488/ Em 500-530).
On the technique in general: In qHTS, concentration-response curves come from the screen itself.
For `O=P1(N(CCCl)CCCl)OCCC2CCCCN21` (stereo not drawn), the activity, negative = active was inactive: 11.4%.

Consider `CCNC(=S)/N=C(\N)N[N+](=O)[O-]`, for which the activity, negative = active is inactive: -0.125%.

For `O=C(NC1CCS(=O)(=O)C1)NP(=S)(Oc1ccccc1)Oc1ccccc1` (stereo not drawn), the activity, negative = active is inactive: 6.36%.

`c1ccc(-c2nn[nH]n2)c(-c2nn[nH]n2)c1`: the activity, negative = active is inactive: -2.22%.

`Cc1ccc(NP(=O)(Oc2cccc(C)c2)Oc2cccc(C)c2)nc1`: the activity, negative = active is inactive: 1.23%.

`Cc1ccccc1OP(=O)(Nc1ccccn1)Oc1ccccc1C`: the activity, negative = active was inactive: 5.39%.

Consider `CC(NC(=O)COC(=O)C(O)(c1ccccc1)c1ccccc1)c1ccccc1` (stereo not drawn), for which the activity, negative = active is inactive: 4.25%.

Turning to `CN(C)C(=O)Oc1noc2ccccc12`, the activity, negative = active is inactive: -2.24%.

With `O=c1c2cc([N+](=O)[O-])ccc2[nH]c2c([N+](=O)[O-])cc([N+](=O)[O-])cc12`, the activity, negative = active is inactive: 0.298%.

As to `COC(=O)c1cc2c(s1)N=C(c1ccccc1)N(C)P2(=O)N1CCOCC1` (stereo not drawn), the activity, negative = active is inactive: 6.8%.

On to `Cc1ccc(OP(=O)(Nc2ccccn2)Oc2ccc(C)cc2)cc1`, for which the activity, negative = active is inactive: 6.19%.

Turning to `CC(=O)NC(SC(=S)N(CC(C)C)CC(C)C)C(Cl)(Cl)Cl` (stereo not drawn), the activity, negative = active was inactive: -0.0209%.

For `O=C(OC1CN2CCC1CC2)c1ccccc1` (stereo not drawn), the activity, negative = active is inactive: 9.67%.

As to `CCC(=O)N1C2C3N(C(=O)CC)C1C1N(C(=O)CC)C(C(N1C(=O)CC)N3C(=O)CC)N2C(=O)CC`, the activity, negative = active was inactive: -3.57%.

Consider `CCc1cc(O)c([N+](=O)[O-])c(C)c1[N+](=O)[O-]`, for which the activity, negative = active is inactive: 4.11%.

Consider `CC(C)(C)C(=O)NC(Sc1ccccc1)C(Cl)(Cl)Cl` (stereo not drawn), for which the activity, negative = active was inactive: 4.75%.

Turning to `O=P1(Nc2nc3ccc(Cl)cc3s2)COc2ccccc2O1` (stereo not drawn), the activity, negative = active was inactive: 3.93%.

For the compound `CCOc1ccc(C2=NCC(CBr)S2)cc1` (stereo not drawn), the activity, negative = active is inactive: -6.11%.

On to `CC(=O)Nc1ccc([As](=O)(O)O)c(O)c1`, for which the activity, negative = active is inactive: 0.385%.

With `CC(=O)Nc1ccc(Oc2c([N+](=O)[O-])cc([N+](=O)[O-])cc2[N+](=O)[O-])cc1`, the activity, negative = active is inactive: 2.3%.

For `N#C/C(=C\c1ccc(N(CCBr)CCBr)cc1)C(N)=O`, the activity, negative = active is inactive: 8.03%.

On to `CC(=O)c1ccc(N2CC2c2ccncc2)cc1` (stereo not drawn), for which the activity, negative = active is inactive: 4.54%.

As to `COC(=O)C1(C)COP(=O)(NCc2ccccc2)OC1` (stereo not drawn), the activity, negative = active is inactive: -19.7%.

`Cc1ccccc1CN(C)C(=O)COC(=O)C(O)(c1ccccc1)c1ccccc1`: the activity, negative = active is inactive: 1.4%.

Consider `C[C@@H]1C=CCP(=O)(Oc2ccccc2)O1` (stereo partly drawn), for which the activity, negative = active was inactive: -5.52%.

As to `C[C@H]1OP(=O)(Oc2ccccc2)C[C@@H]2O[C@@H]21` (stereo partly drawn), the activity, negative = active is inactive: -9.43%.

On to `COc1ccccc1OP(=O)(Nc1ccc(C)cn1)Oc1ccccc1OC`, for which the activity, negative = active was inactive: -11.7%.

`Cc1ccc(OP(=O)(Nc2nccs2)Oc2ccc(C)cc2)cc1`: the activity, negative = active was inactive: -12.4%.

For `Clc1ccc(Cl)c(NC2=NCC(CBr)S2)c1` (stereo not drawn), the activity, negative = active is inactive: -1.22%.

On to `CN1CCCC(OC(=O)C(c2ccccc2)c2ccccc2)C1` (stereo not drawn), for which the activity, negative = active was inactive: -3.15%.

As for `NC(=O)c1cc([N+](=O)[O-])cc([N+](=O)[O-])c1N`, the activity, negative = active is inactive: -3.43%.

With `CN(C(=O)Cc1ccc(Cl)c(Cl)c1)[C@H]1CCCC[C@H]1N1CCCC1`, the activity, negative = active was inactive: 8.7%.

`Cc1ccc(N/C(=N/P(=O)(N2CCOCC2)N2CCOCC2)N2CCOCC2)cc1`: the activity, negative = active is inactive: 7.43%.

Consider `CC(C)CC(=O)NC(Sc1ccc(Cl)cc1)C(Cl)(Cl)Cl` (stereo not drawn), for which the activity, negative = active is inactive: -1.4%.

Turning to `Nc1cc(N)c2nonc2c1[N+](=O)[O-]`, the activity, negative = active is inactive: -0.806%.

Regarding `Oc1ccccc1CNc1ccccn1`, the activity, negative = active is inactive: -0.395%.

Take `O=C(NC(Sc1ccncn1)C(Cl)(Cl)Cl)c1ccccc1` (stereo not drawn): the activity, negative = active was inactive: 2.61%.

Take `CCOP(=O)(Nc1ccccc1)OCC`: the activity, negative = active is inactive: 1.88%.

As to `Cc1cc(SC(NC(=O)c2ccc(F)cc2)C(Cl)(Cl)Cl)ncn1` (stereo not drawn), the activity, negative = active was inactive: -2.38%.

As to `Cc1ccc(NP(=O)(Oc2ccccc2F)Oc2ccccc2F)nc1`, the activity, negative = active was inactive: 2.74%.

Consider `CN(C(=O)Cc1ccc(Cl)c(Cl)c1)[C@H]1CCCC[C@@H]1N1CCCC1`, for which the activity, negative = active was inactive: 2.14%.

In the case of `O=C(O)c1ccccc1[As](=O)(O)O`, the activity, negative = active was inactive: 11.7%.

Regarding `CC(=O)Nc1ccc([As](=O)(O)O)cc1`, the activity, negative = active is inactive: 5.45%.

`CCCC1OP(N)(=O)OCC1CC` (stereo not drawn): the activity, negative = active was inactive: -11.7%.

With `CN(C)P(=O)(N(C)C)n1c(Nc2ccccc2)nnc1-c1ccccc1`, the activity, negative = active is inactive: -1.05%.

For `O=P(Nc1nc2ccc(Cl)cc2s1)(c1ccccc1)c1ccccc1`, the activity, negative = active is inactive: 5.22%.

As to `CCN(N=Nc1nonc1N)c1nonc1N`, the activity, negative = active is inactive: 5.8%.

With `Nc1cccc2ccc([As](=O)(O)O)cc12`, the activity, negative = active is inactive: -3.65%.

Turning to `O=C(Nc1cc([As](=O)(O)O)ccc1O)c1ccccc1`, the activity, negative = active is inactive: -3.04%.

Take `O=P1(N(CCCl)CCCl)OCCCS1` (stereo not drawn): the activity, negative = active was inactive: -11.9%.

Take `O=[N+]([O-])c1cccc(NC2=NCC(CBr)S2)c1` (stereo not drawn): the activity, negative = active was inactive: -0.103%.

`COC(=O)C1(C)COP(=O)(Nc2ccccc2)OC1` (stereo not drawn): the activity, negative = active is inactive: 2.8%.

Take `O=C(O)CNc1ccc([As](=O)(O)O)cc1`: the activity, negative = active is inactive: -6.44%.

For `CC(C)(C)C(=O)NC(Sc1ccncn1)C(Cl)(Cl)Cl` (stereo not drawn), the activity, negative = active is inactive: 0.821%.

In the case of `O=[N+]([O-])c1ncn(CCn2ncnc2[N+](=O)[O-])n1`, the activity, negative = active is inactive: 2.09%.

For `O=[N+]([O-])c1cccc2n[nH]nc12`, the activity, negative = active was inactive: -5.02%.

With `CC(=O)N1C2C3N(C(C)=O)C1C1N(C(C)=O)C(C(N1C(C)=O)N3C(C)=O)N2C(C)=O`, the activity, negative = active was inactive: -9.18%.

On to `Cc1ccc(NP(=O)(Oc2ccccc2)Oc2ccccc2)nc1`, for which the activity, negative = active was inactive: 9.24%.

On to `CCc1nc2c(n1)c1c(non1O)c1c2no[n+]1[O-]`, for which the activity, negative = active was inactive: -1.99%.

`COc1ccc(C2=NCC(CBr)S2)cc1` (stereo not drawn): the activity, negative = active was inactive: -18.4%.

Take `CC(C)=N/N=C(\N)N[N+](=O)[O-]`: the activity, negative = active was inactive: -5.09%.

For `CC(C)c1nc(Nc2ccccc2)n(P(=O)(N(C)C)N(C)C)n1`, the activity, negative = active was inactive: 4.71%.

For `CN(C)C(=O)OCCc1n(C)cc[n+]1C`, the activity, negative = active was inactive: 0.942%.

For the compound `c1cc(-c2nn[nH]n2)ccc1-c1nn[nH]n1`, the activity, negative = active was inactive: 2.55%.

Consider `CC1CCN(C(=O)Oc2c(Cl)cc(Cl)c3cccnc23)CC1`, for which the activity, negative = active was inactive: -17.7%.

`Nc1ccc([As](=O)(O)c2ccc(N)cc2)cc1`: the activity, negative = active is inactive: 5.25%.

Regarding `C[N+]1=C2C=CC=CC=C2SC12C([N+](=O)[O-])=CC([N+](=O)[O-])=C[C-]2[N+](=O)[O-]` (stereo not drawn), the activity, negative = active is inactive: 10.7%.

Regarding `CCN(/C(=N/P(=O)(N1CCOCC1)N1CCOCC1)N1CCOCC1)c1ccc(OC)cc1`, the activity, negative = active is inactive: -5.61%.

Values taken from PubChem BioAssay AID602313 (National Center for Advancing Translational Sciences (NCATS), 2012).
